Values of other authors, collected in publication PMC6994236.

Chains of the proteins cited; added tags and fusions are not shown. Lines headed by an entry give the natural chain unless they say otherwise; changes in a name come on top. Residues count along the entry.
UniProt Q62765: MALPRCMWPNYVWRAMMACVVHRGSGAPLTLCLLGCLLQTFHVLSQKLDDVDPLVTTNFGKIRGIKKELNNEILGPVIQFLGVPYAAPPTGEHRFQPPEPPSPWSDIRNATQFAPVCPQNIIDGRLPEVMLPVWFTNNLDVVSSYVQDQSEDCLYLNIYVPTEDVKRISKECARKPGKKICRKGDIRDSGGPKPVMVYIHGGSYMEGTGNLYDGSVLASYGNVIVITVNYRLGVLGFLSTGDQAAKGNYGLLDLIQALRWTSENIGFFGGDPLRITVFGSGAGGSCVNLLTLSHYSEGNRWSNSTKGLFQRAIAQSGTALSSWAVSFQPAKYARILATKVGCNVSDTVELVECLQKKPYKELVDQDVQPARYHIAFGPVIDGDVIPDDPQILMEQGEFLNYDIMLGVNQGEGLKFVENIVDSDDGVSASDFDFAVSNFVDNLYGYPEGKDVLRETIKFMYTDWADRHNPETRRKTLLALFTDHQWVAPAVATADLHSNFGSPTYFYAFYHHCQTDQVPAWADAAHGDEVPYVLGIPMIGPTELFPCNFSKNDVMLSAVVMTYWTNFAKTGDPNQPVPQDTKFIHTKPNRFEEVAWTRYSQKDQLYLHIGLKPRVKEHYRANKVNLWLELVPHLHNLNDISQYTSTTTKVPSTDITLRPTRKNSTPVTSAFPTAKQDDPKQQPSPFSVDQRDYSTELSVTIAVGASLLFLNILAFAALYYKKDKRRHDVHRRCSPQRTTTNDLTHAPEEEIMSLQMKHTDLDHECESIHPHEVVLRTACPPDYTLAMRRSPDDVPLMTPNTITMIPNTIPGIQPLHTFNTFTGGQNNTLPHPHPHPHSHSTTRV
UniProt P31016, 61-393: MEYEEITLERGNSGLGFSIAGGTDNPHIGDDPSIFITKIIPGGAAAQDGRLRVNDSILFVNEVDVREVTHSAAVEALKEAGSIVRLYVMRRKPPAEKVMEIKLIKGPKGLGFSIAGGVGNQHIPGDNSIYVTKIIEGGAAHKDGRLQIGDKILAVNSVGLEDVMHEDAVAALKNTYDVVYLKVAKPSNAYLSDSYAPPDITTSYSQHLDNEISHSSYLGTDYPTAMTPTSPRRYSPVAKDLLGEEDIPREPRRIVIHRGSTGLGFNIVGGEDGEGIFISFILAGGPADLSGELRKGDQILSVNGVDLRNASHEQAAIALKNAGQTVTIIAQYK

Target: Neuroligin-1 C-terminal 16mer peptide (Rattus norvegicus) (UniProt Q62765)
Experiment: surface plasmon resonance

- Kd: 200 nM
Substance: PSD-95 PDZ1-3 (from UniProt P31016)
